Results: article PMC7321169, “N-Alkylaminoferrocene-Based Prodrugs Targeting Mitochondria of Cancer Cells” (Molecules, 2020)

Tests used:
[1] = system: Jurkat cells; experiment: Viability and cell death of Jurkat cells (Annexin A5-FITC/PI flow cytometry); assay type: cell-based, human
Experimental: Jurkat cells were counted in MUSE Cell Analyzer using MUSE® Count &Viability Assay Kit (Merck-Millipore, Billerica, MA, USA) and adjusted to a density of 1.0 × 10^5/mL in RPMI 1640 medium (with 10% FCS and 1% glutamine). A total of 9000 cells per well per 90 μL were seeded into 96 well culture plates. The 50 mM prodrug stock solutions were diluted to 300, 100, 30, and 10 μM in cell culture medium and 10 μL of the dilutions was pipetted to the cells, receiving final test concentrations of 30, 10, 3, and 1 μM. Every concentration was tested in triplicates. Cells with corresponding amounts of DMSO served as negative controls. […] was incubated with 200 μL of freshly prepared staining solution, consisting of 1 μl Annexin A5-Fitc, 0.4 μL 1,1′,3,3,3′,3′-hexamethylindodicarbocyanine iodide (DiIC1(5)) (both from Thermo Fisher Scientific, Waltham, MA, USA), 66.6 ng propidiumiodide (PI) and 33 μM monobromobimane (MBB, both from Sigma-Aldrich, Taufkirchen, Germany) per 1 mL Ringer’s solution (Fresenius Kabi AG, Bad Homburg, Germany). Cells were incubated for 20 min at 4 °C and then analyzed in Gallios cytofluorometer™ (Beckman Coulter, Fullerton, CA, USA). Fitc and propidium iodide were excited at 488 nm; Fitc fluorescence was recorded on the FL1 sensor (525/38 nm band pass, BP) and propidium iodide fluorescence was detected on FL3 sensor (620/30 nm BP), DiIC1(5) fluorescence was excited at 638 nm and detected on FL6 sensor at 675/20 nm. Monobromobimane fluorescence was excited at 405 nm and detected on FL9 sensor at 430/40 nm. To eliminate any fluorescence bleed-through, electronic compensation was used. Data were analyzed employing Kaluza™ software Version 1.2 (Beckman Coulter, Fullerton, CA, USA) and processed in Microsoft Excel. […] IC50 values were determined by fitting the % values of Ax-PI- cells versus drug concentration with a sigmoidal curve using GraphPad Prism software. Reduced glutathione (an intracellular thiol) can be detected by monobromobimane, a dye that becomes fluorescent after non-enzymatic binding to thiols. […]

[2] = system: Jurkat cells; experiment: Cell cycle of Jurkat cells; assay type: cell-based, human; details: 48 h, concentrations causing no cell death
[3] = system: BL-2 cells; experiment: ROS-amplification in BL-2 cells (CM-DCFH-DA, flow cytometry); assay type: cell-based; details: 2 h, 37 °C, CM-DCFH-DA probe
Experimental: The cells were centrifuged (5 min; 1000 rpm), washed with DPBS (2 × 10 mL) and the suspension at cell density of 10^6 cells/mL in DPBS was prepared. 5(6-)chloromethyl-2′,7′-dichlorodihydrofluorescein diacetate (CM-DCFH-DA) in DMSO (8.7 µL, stock solution 10 mM) was added into 8.7 mL of cell solution to have 10 µM final concentration. The cells were incubated in the dark chamber supplemented by 5% CO2 at 37 °C for 15 min. Then, the cells were centrifuged, washed with DPBS (1× 10 mL) and resuspended in opti-MEM medium by maintaining the cell concentration at 10^6 cells/mL. The cell suspension was split into portions as 200 µL in each. […] After 120 min of incubation in the dark chamber filled with 5% CO2 at 37 °C, the mean fluorescence of live cells (λex = 488 nm, λem = 530 nm) in the suspensions was determined by using the flow cytometer. All samples were applied in triplicates within the assay and the results were calculated based on three independent assays. Prodrug 7 contributes to the fluorescence signal derived from CM-DCFH-DA (λex = 488 nm, λem = 530 nm). This background signal was quantified by doing the same experiment as described above, but in the absence of CM-DCFH-DA (Figure 3B). Then we subtracted this background signal from that obtained in the presence of CM-DCFH-DA to obtain the corrected ROS-mediated fluorescence increase of CM-DCFH-DA probe (Figure 3C).

[4] = system: BL-2 cells; experiment: Viability of suspension BL-2 cells (MTT); assay type: cell-based
Experimental: The suspension of BL-2 cells in the RPMI 1640 medium containing 5% FBS (for 24- and 48 h assays) or 10% FBS (for 96 h assays) 1% L-glutamine, and 1% penicillin/streptomycin was spread in the wells of a 96-well microtiter plate. Every plate contained 50,000 cells (with the exception of the 96h-experiment, for which 25,000 cells were used) per well per 100 μL. Stock solutions of prodrugs of different concentrations (1 μL, solvent DMSO) were added to the wells and incubated for 24–96 h. Four experiments were conducted for each concentration of the prodrug. Finally, 3-(4,5-dimethylthiazol-2-yl)-2,5-diphenyltetrazolium bromide (MTT; 20 μL of the solution prepared by dissolving MTT (5 mg) in PBS buffer (1 mL)) was added to each well, incubated for 3 h, treated with sodium dodecyl sulfate (SDS) solution (90 μL, 10% solution in 0.01 M aqueous HCl), and incubated overnight. Then the intensity of absorbance at 590 nm was measured (MTT is converted to blue dye (λmax = 590 nm) in live cells). The absorbance at 690 nm was taken as a baseline value.

[5] = Generation of ROS in cell free settings (2′,7′-dichlorofluorescin oxidation in the presence of H2O2); details: compound 49.5 μM, DCFH 10 μM, H2O2 10 mM, GSH 5 mM, EDTA 10 mM, MOPS buffer, 37 °C
Experimental: 2′,7′-Dichlorofluorescin diacetate (DCFH-DA, 4.9 mg) was dissolved in 100 µL DMF and mixed with 0.1 M NaOH (900 µL). This mixture was incubated on a shaker for 30 min at 25 °C in the dark to obtain 10 mM 2′,7′-dichlorofluorescin (DCFH) stock solution. Next, 3-(N-morpholino)propanesulfonic acid buffer (MOPS buffer 100 mM, pH: 7.4) containing N,N,N’,N’-ethylenediaminetetraacetic acid (EDTA, 10 mM), glutathione (GSH, 5 mM) and H2O2 (10 mM) was prepared. Finally, DCFH was diluted in this buffer to 10 µM as the final concentration. Monitoring of the fluorescence was started (λex: 501 nm, λem: 525 nm). After 5 min, the compound was added to have a final concentration of 50 µM. DMF and FeSO4 in DMF were used as controls. The measurement was conducted for 300 min (Table S2, Figure 1A).

[6] = system: Jurkat cells; experiment: Intracellular glutathione content of viable Jurkat cells (monobromobimane); assay type: cell-based, human; details: 48 h, concentrations causing no cell death
Experimental: (§1) Jurkat cells were counted in MUSE Cell Analyzer using MUSE® Count &Viability Assay Kit (Merck-Millipore, Billerica, MA, USA) and adjusted to a density of 1.0 × 10^5/mL in RPMI 1640 medium (with 10% FCS and 1% glutamine). A total of 9000 cells per well per 90 μL were seeded into 96 well culture plates. The 50 mM prodrug stock solutions were diluted to 300, 100, 30, and 10 μM in cell culture medium and 10 μL of the dilutions was pipetted to the cells, receiving final test concentrations of 30, 10, 3, and 1 μM. Every concentration was tested in triplicates. Cells with corresponding amounts of DMSO served as negative controls. […] Cells were incubated for 20 min at 4 °C and then analyzed in Gallios cytofluorometer™ (Beckman Coulter, Fullerton, CA, USA). Fitc and propidium iodide were excited at 488 nm; Fitc fluorescence was recorded on the FL1 sensor (525/38 nm band pass, BP) and propidium iodide fluorescence was detected on FL3 sensor (620/30 nm BP), DiIC1(5) fluorescence was excited at 638 nm and detected on FL6 sensor at 675/20 nm. Monobromobimane fluorescence was excited at 405 nm and detected on FL9 sensor at 430/40 nm. To eliminate any fluorescence bleed-through, electronic compensation was used. Data were analyzed employing Kaluza™ software Version 1.2 (Beckman Coulter, Fullerton, CA, USA) and processed in Microsoft Excel. […]

[7] = Solubility of prodrugs in aqueous buffers (absorbance at 790 nm); assay type: physicochemical; details: RPMI medium containing 20% FBS and DMSO (1%, v/v)
Experimental: Prodrugs 5, 7 and 9 (known control) were dissolved in DMSO at concentrations of 15, 10, 5, 2, 1.5, 1, and 0.2 mM. These solutions (10 μL) were transferred to quartz cuvettes containing 990 μL of either Dulbecco's phosphate-buffered saline (DPBS) or Roswell Park Memorial Institute (RPMI) medium containing 20% of fetal bovine serum (FBS) to obtain solutions (or suspensions) with final concentrations of prodrugs-150, 100, 50, 20, 15, 10, and 2 μM. The absorbance at 790 nm of the resulting solutions/suspensions was measured and plotted as a function of the concentration of prodrugs. Mixtures absorbing <0.04 ([…] nm) for FBS and 0.034 ([…] nm) for DPBS appeared transparent and were considered as true solutions.

[8] = system: HDFa cells; experiment: Viability of adherent HDFa cells (MTT); assay type: cell-based, human; details: 48 h incubation; normal cells
Experimental: (§2) Adherent A2780, DU-145 and NHDF cells were grown as mentioned before. Then, the cells were resuspended in the RPMI 1640 (DMEM for HDFa cell line) medium containing 5% FBS (for 24- and 48 h assays) or 10% FBS (for 96 h assays) 1% L-glutamine, and 1% penicillin/streptomycin. This suspension was spread in the wells of a 96-well microtiter plate. Every well in the plates contained 25,000 cells (exceptions: 12,500 cells for the 96h-assay and 10,000 cells for experiments with HDFa cell line) per well per 100 μL and was left at 37 °C in the chamber filled with CO2 (5%) overnight. Stock solutions of prodrugs of different concentrations (1 μL, solvent DMSO) were added to the wells and incubated for 24–96 h. Four experiments were conducted for each concentration of the prodrug. Finally, 3-(4,5-dimethylthiazol-2-yl)-2,5-diphenyltetrazolium bromide (MTT; 20 μL of the solution prepared by dissolving MTT (5 mg) in PBS buffer (1 mL)) was added to each well, incubated for 3 h, treated with sodium dodecyl sulfate (SDS) solution (90 μL, 10% solution in 0.01 M aqueous HCl), and incubated overnight. Then the intensity of absorbance at 590 nm was measured (MTT is converted to blue dye (λmax = 590 nm) in live cells). The absorbance at 690 nm was taken as a baseline value.

[9] = system: DU-145 cells; experiment: Viability of adherent DU-145 cells (MTT); assay type: cell-based, human
Experimental: as §2

[10] = system: A2780 cells; experiment: Viability of adherent A2780 cells (MTT); assay type: cell-based, human
Experimental: as §2

[11] = system: Jurkat cells; experiment: Mitochondrial membrane potential of Jurkat cells (DiIC1(5)); assay type: cell-based, human; details: 48 h; 5 at nontoxic concentrations ≤ 10 μM; 12 at all tested concentrations
Experimental: as §1

**Q.** What does the source list for `CC1(C)OB(c2ccc(COC(=O)N(Cc3cn(CCCC[P+](c4ccccc4)(c4ccccc4)c4ccccc4)nn3)[c-]3cccc3)cc2)OC1(C)C.[Fe+2].[I-].c1cc[cH-]c1` [prodrug 5]?
**A.** IC50 ([1]; 24 h incubation): 20 ± 3 µM; Mechanism of cell death of Jurkat cells ([1]; 48 h, Ax/PI staining): mostly via necrosis; IC50 ([1]; 48 h incubation): 20 ± 2 µM; Effect on cell cycle [2]: does not affect; ROS amplification in BL-2 cells (in words) [3]: weaker ROS amplifier in BL-2 cells than non-targeted NAAF-prodrug 9; IC50 ([4]; 24 h incubation): 5 ± 1 µM; IC50 ([4]; 48 h incubation): 5 ± 1 µM; IC50 ([4]; 96 h incubation): 8 ± 1 µM; Initial rate (dF/dt)0 of DCFH oxidation in the presence of H2O2 [5]: 7.7 a.u. × min^−1; Effect on intracellular concentration of glutathione [6]: does not affect; Solubility in FBS [7]: 130 + 17 μM; IC50 [8]: 18 ± 5 µM; IC50 ([9]; 24 h incubation): 20 ± 3 µM; IC50 ([9]; 48 h incubation): 10 ± 2 µM; IC50 ([9]; 96 h incubation): 10 ± 2 µM; IC50 ([10]; 24 h incubation): 10 ± 3 µM; IC50 ([10]; 48 h incubation): 5 ± 2 µM; IC50 ([10]; 96 h incubation): 5 ± 2 µM; Effect on mitochondrial potential of Jurkat cells [11]: significant increase of the mitochondrial potential
